From ChEMBL document CHEMBL4673282, “Identification of a New Heterocyclic Scaffold for Inhibitors of the Polo-Box Domain of Polo-like Kinase 1” (J Med Chem, 2020)

Experiment: in vitro
Conditions: PAMPA

| SMILES | Papp |
| --- | --- |
| CC(C)(C)OC(=O)CC[C@H](NC(=O)OC(C)(C)C)C(=O)NCCCn1c(=O)c2cc(F)ccc2n2c(=S)[nH]nc12 | 744 ×10⁻⁶ cm/s |
| CC(C)(C)OC(=O)CC[C@@H](NC(=O)OC(C)(C)C)C(=O)NCCCn1c(=O)c2cc(F)ccc2n2c(=S)[nH]nc12 | 121 ×10⁻⁶ cm/s |
